Among the data in paper PMC5929103 are Kd values, retold here.

This test has as its target yeast-displayed APPI_(M17G/I18F/F34V) (human). Briefly: flow cytometry on cells. In general terms: A flow cytometer gives signals particle by particle.

“active human kallikrein-6, labelled with DyLight 650 (from UniProt Q92876 22-244) (enzyme)”: the dissociation constant Kd (as a rule, the constant that tells how readily two partners part at equilibrium) worked out at 55 nM.
